This passage reports IC50 results from ChEMBL document CHEMBL1143592, “N-terminal sugar conjugation and C-terminal Thr-for-Thr(ol) exchange in radioiodinated Tyr3-octreotide: effect on cellular ligand trafficking in vitro and tumor accumulation in vivo” (J Med Chem, 2005).

Sequences of proteins named here, by UniProt entry; tags and fusion partners are left off. A change or cut given only in a name is not applied to a line headed by its entry.
UniProt P30874: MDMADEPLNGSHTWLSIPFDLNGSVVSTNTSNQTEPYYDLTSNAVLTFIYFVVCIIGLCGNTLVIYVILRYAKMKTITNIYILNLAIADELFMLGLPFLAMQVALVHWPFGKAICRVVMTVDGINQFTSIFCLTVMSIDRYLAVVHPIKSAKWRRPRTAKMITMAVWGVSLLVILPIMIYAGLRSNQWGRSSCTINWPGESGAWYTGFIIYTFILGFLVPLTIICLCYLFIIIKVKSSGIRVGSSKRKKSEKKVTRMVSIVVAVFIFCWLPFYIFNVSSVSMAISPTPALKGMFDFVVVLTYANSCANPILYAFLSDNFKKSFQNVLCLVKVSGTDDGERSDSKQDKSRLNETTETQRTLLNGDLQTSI

This test has as its target Somatostatin receptor type 2 (Homo sapiens, UniProt P30874). Briefly: In vitro inhibition of [125I][Leu8,D-Trp22,Tyr25] somatostatin 28 binding to human somatostatin receptor type 2 expressed in CCL39 cells; (n=5). In kind it is cell-based.

By IC50 is commonly meant the point on the concentration scale where inhibition reaches its midpoint. Lower therefore signals inhibition by little substance. `C[C@H](O)[C@@H](CO)NC(=O)[C@@H]1CSSC[C@H](NC(=O)[C@H](N)Cc2ccccc2)C(=O)N[C@@H](Cc2ccc(O)c(I)c2)C(=O)N[C@H](Cc2c[nH]c3ccccc23)C(=O)N[C@@H](CCCCN)C(=O)N[C@@H]([C@@H](C)O)C(=O)N1` gave an IC50 of 1.6 nM.
